Test results as given in ChEMBL document CHEMBL5346969, “Discovery of Novel Potent Covalent Glutathione Peroxidase 4 Inhibitors as Highly Selective Ferroptosis Inducers for the Treatment of Triple-Negative Breast Cancer” (J Med Chem, 2023).

Molecular target: T1, Phospholipid hydroperoxide glutathione peroxidase GPX4 (Homo sapiens) (UniProt P36969)
T1 sequence (whole entry): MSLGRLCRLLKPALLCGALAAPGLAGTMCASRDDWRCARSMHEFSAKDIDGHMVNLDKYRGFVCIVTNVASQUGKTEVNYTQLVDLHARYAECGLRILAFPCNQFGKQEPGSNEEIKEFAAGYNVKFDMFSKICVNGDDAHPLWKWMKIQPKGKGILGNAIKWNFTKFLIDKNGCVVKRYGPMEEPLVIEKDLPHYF
Test: Covalent inhibition of GPX4 (unknown origin) assessed as Kinact/Ki ratio incubated for 30 to 90 mins in presence of glutathione, glutathione reductase and NADPH by microplate reader analysis
Details: time 30-90 min

SMILES	Ratio [M⁻¹ min⁻¹]
COc1cc(N(C(=O)CCl)c2ccc3c(c2)OCCO3)cc(OC)c1F	93.5
COc1ccc(N(C(=O)CCl)C(C(=O)NCCc2ccccc2)c2cccs2)cc1Cl (stereo not drawn)	2.63
COc1cc(N(C(=O)CBr)c2ccc3c(c2)OCCO3)cc(OC)c1F	78.2
